Measurements taken from article PMC2850272 (Bioorganic & medicinal chemistry, 2010).

Conditions: pH 7.4

Row | Substance | Permeability (PAMPA)
1 | (2-(Benzo[d][1,3]dioxol-5-yl)-7-methoxyquinolin-3-yl)methanol [29a] | 356±22 10^−6 cm/s
2 | (2-(Benzo[d][1,3]dioxol-5-yl)-5-methoxyquinolin-3-yl)methanol [29b] | 644±20 10^−6 cm/s
